OPERA 2.9 data: vapor pressure values

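These are experimental values that the OPERA curators gathered from public databases to train and test their QSAR models. A listed value is a point estimate from one report or more. Method, purity and exact conditions of the single measurements are not given. Where a salt, mixture or single isomer is drawn, the source does not say that exactly this form was tested. Unmarked limits or estimates from the upstream databases cannot be ruled out.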

Vapor pressure is log10 of mmHg; the set covers 15 to 30 °C, mostly 20 to 25 °C. The databases behind each value are named after "via".

compound | vapor pressure (log10 mmHg) | via
CCOC(=O)CC(CC(C)=O)C(=O)OCC (configuration not stated) | -2.745 | eChemPortal
O=C(OCCc1ccccc1)c1ccccc1O | -3 | eChemPortal
N#CSCSc1nc2ccccc2s1 | -5.046 | PubChem
CCCCCC(=O)OCC | 0.415 | eChemPortal
Clc1ccccc1-c1cc(Cl)c(Cl)c(Cl)c1 | -3.943 | OCHEM
COc1ccc(C=CC(=O)OCCC(C)C)cc1 | -4.979 | eChemPortal
COc1ccc(C(OC[C@H]2O[C@@H](n3cnc4c(=O)nc(NC(=O)C(C)C)[nH]c43)C[C@@H]2O)(c2ccccc2)c2ccc(OC)cc2)cc1 | -5.423 | eChemPortal
Cc1ccc(S(N)(=O)=O)cc1 | -5.669 | eChemPortal
CC(CC(=O)[O-])CC(C)(C)C.CC(CC(=O)[O-])CC(C)(C)C.[Sn+2] (configuration not stated) | -2.824 | eChemPortal
O=S1(=O)CC=CC1 | -2.011 | OFMPub
C=C[C@@](C)(/C=C/c1ccc(O)cc1)CCC=C(C)C | -6.695 | eChemPortal
N#CC(CCBr)(c1ccccc1)c1ccccc1 | -5.684 | eChemPortal
CC1=C(C#N)C(C)(C)CC=C1 | -1.028 | eChemPortal
COc1ccc2c(c1)C(CC#N)=CCC2 | -5.319 | eChemPortal
Cl.N[C@@H](Cc1cnc[nH]1)C(=O)O | -10.23 | eChemPortal
Cc1ccc(-n2nccn2)c(C(=O)O)c1 | -8.16 | eChemPortal
O=C1NCCN1CCO | -5.011 | eChemPortal
CCCCCC(C=O)=Cc1ccccc1 | -3.001 | eChemPortal
COC(=O)[C@@H]1CCC[C@H](C)C1 (relative stereo) | 0.306 | eChemPortal
C=CCCCCCCCCC(=O)NCC(=O)O | -2.002 | eChemPortal
CCCCCCCC[N+](C)(C)CCCCCCCC.[Cl-] | -4.913 | eChemPortal
CC(C)CCCC(C)(C)O | -0.701 | eChemPortal
O=S(=O)(c1ccccc1)N(SC(Cl)(Cl)Cl)c1ccccc1 | -6.973 | eChemPortal
O=C(O)CCSCCC(=O)O | -4.478 | eChemPortal
O=C(Cl)c1cc(F)c(F)cc1F | -0.284 | eChemPortal
CC(C)(c1ccccc1)C(C)(C)c1ccccc1 | -3.821 | eChemPortal
CC(C)c1ccc(C=O)cc1 | -1.581 | eChemPortal
CC1CC(CC2CC(C)C(N)C(C)C2)CC(C)C1N (configuration not stated) | -4.763 | eChemPortal
C=C(CCCCCC)CCCCCCCC | -1.286 | eChemPortal
CN1CCN(C)CC1 | 0.991 | eChemPortal
COC1(OC)CCC2=C(CC[C@@H]3[C@@H]2CC[C@]2(C)C(=O)CC[C@@H]32)C1 | -7.453 | eChemPortal
C=CSCCO | -0.539 | eChemPortal
Nc1cc(Cl)nc(C(=O)O)c1Cl | -9.929 | eChemPortal
CCCc1ccc2c(c1)OC(C(C)=O)O2 (configuration not stated) | -2.48 | eChemPortal
O=C(O)CCNC(=O)c1ccc(/N=N/c2ccc(O)c(C(=O)O)c2)cc1 | -6.545 | eChemPortal
NCCCCCC(=O)O | -13.14 | eChemPortal

Again, the 4 entries with the lowest vapor pressure:

compound | vapor pressure (log10 mmHg) | via
NCCCCCC(=O)O | -13.14 | eChemPortal
Cl.N[C@@H](Cc1cnc[nH]1)C(=O)O | -10.23 | eChemPortal
Nc1cc(Cl)nc(C(=O)O)c1Cl | -9.929 | eChemPortal
Cc1ccc(-n2nccn2)c(C(=O)O)c1 | -8.16 | eChemPortal

Source: data files of OPERA 2.9 (Mansouri et al.), github.com/kmansouri/OPERA.